The values that follow come from patent US11186582B2, “Substituted [1,2,4]triazolo[1,5-a]pyrimidin-7-yl compounds as PDE2 inhibitors” (DART NEUROSCIENCE (CAYMAN) LTD., priority 2014, dated 2021).

Protein sequences, listed by entry. Tags and fused reporters are not part of them. Residues count along the entry.
UniProt O00408, 2-941: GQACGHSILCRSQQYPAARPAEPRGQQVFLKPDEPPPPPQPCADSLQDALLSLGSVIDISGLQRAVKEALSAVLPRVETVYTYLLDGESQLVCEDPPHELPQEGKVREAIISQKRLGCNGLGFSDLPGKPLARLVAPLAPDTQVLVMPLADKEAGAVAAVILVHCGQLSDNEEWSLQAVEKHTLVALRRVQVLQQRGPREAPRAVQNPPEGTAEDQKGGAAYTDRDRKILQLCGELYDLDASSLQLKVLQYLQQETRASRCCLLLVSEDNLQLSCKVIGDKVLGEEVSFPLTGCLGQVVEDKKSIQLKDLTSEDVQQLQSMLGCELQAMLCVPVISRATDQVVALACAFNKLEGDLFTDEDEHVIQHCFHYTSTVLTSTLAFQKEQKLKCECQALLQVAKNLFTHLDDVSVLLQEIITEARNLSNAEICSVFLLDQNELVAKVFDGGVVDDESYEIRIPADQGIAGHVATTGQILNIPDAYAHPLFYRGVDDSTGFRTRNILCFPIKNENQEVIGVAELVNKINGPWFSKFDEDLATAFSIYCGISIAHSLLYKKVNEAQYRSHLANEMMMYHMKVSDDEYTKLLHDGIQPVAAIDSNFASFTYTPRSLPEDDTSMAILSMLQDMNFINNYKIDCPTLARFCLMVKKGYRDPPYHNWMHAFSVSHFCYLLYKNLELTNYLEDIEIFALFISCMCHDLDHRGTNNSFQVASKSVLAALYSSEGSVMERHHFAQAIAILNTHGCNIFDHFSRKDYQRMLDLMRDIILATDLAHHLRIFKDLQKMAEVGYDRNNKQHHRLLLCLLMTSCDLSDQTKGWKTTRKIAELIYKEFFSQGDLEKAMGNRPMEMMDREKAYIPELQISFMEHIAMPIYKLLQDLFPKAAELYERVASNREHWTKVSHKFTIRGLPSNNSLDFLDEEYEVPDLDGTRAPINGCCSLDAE

In the first experiment the target is FLAG-tagged PDE2A1 (amino acids 2-941) (Homo sapiens (Human), UniProt O00408). Put plainly: IMAP TR-FRET PDE2A phosphodiesterase enzymatic assay.
Details: not given
A general note: TR-FRET usually uses a lanthanide donor and a delayed reading to cut background.
For `Cc1cc([C@@H]2CCCN(Cc3ccc4ccccc4c3)C2)n2ncnc2n1` (single isomer, unassigned) [Example 2], the IC50 (in general, the midpoint of a concentration-inhibition curve) is 100 to 1000 nM. The same measure, in the same setting: in the case of `Cc1cc([C@H]2CCCN(Cc3ccc4ccccc4c3)C2)n2ncnc2n1` (single isomer, unassigned) [Example 3] it was 100 to 1000 nM; in that of `Cc1cc(C2CCCN(C(=O)c3ccnc4ccccc34)C2)n2ncnc2n1` (stereo not shown) [Example 7, (3-(5-Methyl-[1,2,4]triazolo[1,5-a]pyrimidin-7-yl)piperidin-1-yl)(quinolin-4-yl)methanone], 100 to 1000 nM. On the same count and under the same terms, next, `Cc1cc(C2CN(C(=O)c3ccc4ccccc4n3)CCO2)n2ncnc2n1` (stereo not shown) [Example 8, (2-(5-Methyl-[1,2,4]triazolo[1,5-a]pyrimidin-7-yl)morpholino)(quinolin-2-yl)methanone]: 100 to 1000 nM; `Cc1cc([C@@H]2CCCN(C(=O)[C@H]3COc4ccccc4C3)C2)n2ncnc2n1` [Example 10, (3R)-1-[(3R)-3,4-Dihydro-2H-1-benzopyran-3-carbonyl]-3-{5-methyl-[1,2,4]triazolo[1,5-a]pyrimidin-7-yl}piperidine]: 1000 to 10000 nM; `Cc1cc(C2CCCN(Cc3cccc(Br)c3)C2)n2ncnc2n1` (stereo not shown) [Example 11, 7-(1-(3-Bromobenzyl)piperidin-3-yl)-5-methyl-[1,2,4]triazolo[1,5-a]pyrimidine]: 1000 to 10000 nM. `Cc1cc(C2CCCN(Cc3c(F)cc(-c4ccc(Cl)cc4)cc3F)C2)n2ncnc2n1` (stereo not shown) [Example 12, 7-(1-((4′-Chloro-3,5-difluoro-[1,1′-biphenyl]-4-yl)methyl)piperidin-3-yl)-5-methyl-[1,2,4]triazolo[1,5-a]pyrimidine] gave an IC50 of 100 to 1000 nM. Compound `Cc1cc(C2CCCN(Cc3ccc(-c4ccccc4)cc3)C2)n2ncnc2n1` (stereo not shown) [Example 13, 7-(1-([1,1′-Biphenyl]-4-ylmethyl)piperidin-3-yl)-5-methyl-[1,2,4]triazolo[1,5-a]pyrimidine] registered an IC50 of 100 to 1000 nM. For `Cc1cc(C2CCCN(Cc3c(F)cc(-c4cccc(Cl)c4)cc3F)C2)n2ncnc2n1` (stereo not shown) [Example 14, 1-{[4-(3-Chlorophenyl)-2,6-difluorophenyl]methyl}-3-{5-methyl-[1,2,4]triazolo[1,5-a]pyrimidin-7-yl}piperidine], the IC50 was in the range of 100 to 1000 nM. Still for that read-out and setting: in the case of `Cc1cc(C2CCCN(Cc3c(F)cc(-c4ccccc4Cl)cc3F)C2)n2ncnc2n1` (stereo not shown) [Example 15] it was 100 to 1000 nM.

As for `Cc1cc(C2CCCN(Cc3ccc(-c4ccc(Cl)cc4)cc3)C2)n2ncnc2n1` (stereo not shown) [Example 16, 1-{[4-(4-Chlorophenyl)phenyl]methyl}-3-{5-methyl-[1,2,4]triazolo[1,5-a]pyrimidin-7-yl}piperidine], the IC50 is 100 to 1000 nM. `Cc1cc(C2CCCN(Cc3ccc(-c4cccc(Cl)c4)cc3)C2)n2ncnc2n1` (stereo not shown) [Example 17, 1-{[4-(3-Chlorophenyl)phenyl]methyl}-3-{5-methyl-[1,2,4]triazolo[1,5-a]pyrimidin-7-yl}piperidine] displayed an IC50 of 100 to 1000 nM. `Cc1cc(C2CCCN(Cc3ccc(-c4ccccc4Cl)cc3)C2)n2ncnc2n1` (stereo not shown) [Example 18, 1-{[4-(2-Chlorophenyl)phenyl]methyl}-3-{5-methyl-[1,2,4]triazolo[1,5-a]pyrimidin-7-yl}piperidine] yielded an IC50 of 100 to 1000 nM. As for `Cc1cc(C2CCCN(Cc3ccc(-c4ccc(F)cc4Cl)cc3)C2)n2ncnc2n1` (stereo not shown) [Example 19, 1-{[4-(2-Chloro-4-fluorophenyl)phenyl]methyl}-3-{5-methyl-[1,2,4]triazolo[1,5-a]pyrimidin-7-yl}piperidine], the IC50 is 1000 to 10000 nM.

Still in this experiment, the particulars now being: IMAP TR-FRET, 200 nM FAM-cAMP substrate, 11-point half-log dose-response.
Take `Cc1cc(C2CCCN(Cc3ccc4ccccc4c3)C2)n2ncnc2n1` (racemic) [Example 1, 3-{5-Methyl-[1,2,4]triazolo[1,5-a]pyrimidin-7-yl}-1-(naphthalen-2-ylmethyl)piperidine]: the “PDE2 (pIC50)” value is above 7.

Take `COc1ccc(C(=O)N2CC(c3cc(C)nc4ncnn34)CC(F)(F)C2)cc1I` (stereo not shown) [Example 9, (3,3-Difluoro-5-(5-methyl-[1,2,4]triazolo[1,5-a]pyrimidin-7-yl)piperidin-1-yl)(3-iodo-4-methoxyphenyl)methanone]: the “PDE2 (pIC50)” value is listed as above 7.
